The values below are quoted from earlier work in patent US8487131B2 (Sanford-Burnham Medical Research Institute, priority 2009, dated 2013).

This data set deals with MDA-MB-231 breast cancer cells. Particulars: read-out: EC50 in killing MDA-MB-231 breast cancer cells; reference 13; cited from earlier work.

In the case of `Cc1cc2c(C(C)C)c(O)c(O)c(C=O)c2c(O)c1-c1c(C)cc2c(C(C)C)c(O)c(O)c(C=O)c2c1O` (single isomer, unassigned), the EC50 is 2000 nM.
